Assay results taken from patent publication US20140037708A1, “COMPOSITION FOR SPATIO AND/OR TEMPORAL RELEASE OF BIOACTIVE MATERIAL” (The Regents of the University of Colorado, a body corporate, priority 2012, published 2014).

Assay: Double-sided release test of fluorescent molecules from electrospun scaffolds in custom-made diffusion chambers
Assay type: physicochemical
Description: For molecule release characterizations, the circular samples with 24 mm in diameter were cut from PCL-PLGAac and PCL-PLGAes scaffolds loaded with fluorescent dye or fluorescently-labeled albumin. For each experimental condition, 3 samples were used for analyses. Scaffold samples were placed in a custom-made diffusion-test system in which a sample was sandwiched between two reservoir chambers. Each side of the electrospun scaffolds thus faced a different reservoir filled with 1 ml of buffer solution. The reservoirs used SecureSeal hybridization chambers (Grace Biolabs, Bend, Oreg.) which tightly sealed the surface. Each reservoir had small holes for sampling and changing solutions. The holes were covered with silicone sealing tap during experiments to prevent evaporation. Thus, the molecule movements between the reservoirs could only be through the pores of the electrospun materials. The release tests were performed at 37° C. Samples of buffer solutions in both reservoirs were collected every day during the first 16 days, and subsequently once a week for scaffolds loaded with fluorescent albumins. A shorter release experiment was performed in case of electrospun scaffolds loaded with Rh123. After samples were taken, the reservoir chambers were rapidly rinsed with DI water and refilled with fresh phosphate buffer at 37° C. Samples of 200 μl in triplicates were analyzed in 96-well microplates with a Victor 2 microplate reader (PerkinElmer, Santa Clara, Calif.) to quantify the released amount of Rh123, AlbF and AlbT. The concentration and net amount of released Rh123, AlbF and AlbT were determined using the respective calibration curves. The geometry and porosity of the molecule-releasing scaffolds kept constant for all the experimental samples. For the designs with multiple molecules, as various fluorophores could be simultaneously released by the samples, the possibility of the overlap of the fluorophore emission spectra was examined; we could find no overlaps in the interested spectrum ranges. […] For each type of molecule, the efficiency of separation between Side A and Side B, Smolecule—A-B, was defined as the percentage of the molecule released on Side A over the total amount of the molecule released on Sides A and B during the entire experimental duration.
To assess the potential use of PCL-PLGAac and PCL-PLGAes materials for spatially controlled release of active molecules, release experiments were performed using Rh123. PCL and PLGA/Rh123 solutions were electrospun to prepare scaffolds following the pattern described in FIG. 1. Release studies were carried out in custom-made diffusion chambers illustrated in FIG. 7a. The two sealed reservoirs filled with phosphate buffer solution were placed on the opposite sides of the electrospun scaffolds. The PCL side of the scaffold was set to face the buffer reservoir chamber on Side “A”; the Rh123-impregnated PLGA side was placed in contact with the buffer reservoir on Side “B”. […] The separation efficiency of Rh123 between the two surfaces (SRh123—B-A) of the PCL-PLGAac scaffolds was 82±5% during the 9-day release experiment. […] In addition, after day 3, the molecule concentration measured on the PCL side exceeded that on the PLGAes side.

Substance: tetra-methyl-rhodamine isothiocyanate conjugate bovine serum albumin [AlbT]
- separation efficiency (release of two proteins to one side) (PCL-PLGAac composite scaffold, AlbF in inner PLGAac fibers, AlbT in outer PLGAac fibers (FIG. 10a)): 91±4%
- separation efficiency for AlbT between side B and side A (PCL-PLGAac scaffold, AlbT in PLGAac nanofibers, Side B = PLGAac side, 50-day experiment, 37° C.): 90±4%
- total amount of entrapped AlbT released during the experiment (PCL-PLGAac scaffold, 50-day experiment, estimated with PLGAac content of 48%): approximately 88%
- total loaded protein released in 9 days (PCL-PLGAac scaffold, 9 days): 80%
- sustained release at a constant rate after day 9 (PCL-PLGAac scaffold, after day 9): about 1 % per week
- total loaded protein released in the first 24 hours (PCL-PLGAac scaffold, first 24 hours): Approximately 20%
- separation efficiency between side B and side A (sequential release scaffold) (PCL/PLGA scaffold with dual PLGA gradient patterns: AlbF-loaded PLGA in the middle, AlbT-loaded PLGA close to side B (FIG. 11a)): 0.85±0.04
- separation efficiency of AlbT between Side B and Side A (SAlbT B-A) (PLGAac-PCL-PLGAac composite scaffold, release to opposite sides (FIG. 12)): 92±3%
- day on which daily net release to side B peaked (sequential release scaffold (FIG. 11), first 12 days): day 1 and day 2
